Test: USP-simulated intestinal fluid (SIF) peptide stability assay
Settings: USP-SIF pH 6.8, pancreatin 1× USP (10 mg/mL), 37 °C, 50 μM peptide

CC[C@H](C)[C@@H]1NC(=O)[C@@H]2CCCN2C(=O)[C@@H]2CCCN2C(=O)[C@H]([C@@H](C)CC)NC(=O)[C@H](CO)NC(=O)[C@H](CCCCN)NC(=O)[C@H]([C@@H](C)O)NC(=O)[C@@H]2CSSC[C@H](NC1=O)C(=O)N[C@H](Cc1ccc(OC)cc1)C(=O)N[C@@H](Cc1ccccc1)C(=O)N[C@@H](CCC(N)=O)C(=O)N[C@@H](CC(N)=O)C(=O)N[C@@H](CCCNC(=N)N)C(=O)N1CCC[C@H]1C(=O)N[C@@H](CCCNC(=N)N)C(=O)N2
t1/2 SIF: 3 ± 1 min
